Apparent affinities of Ab-14 variants for a coronavirus HR2 peptide

Reference: Li et al. 2023, doi:10.1038/s41467-023-39022-2. File: FLAb, binding data.

Binding partner: SARS-CoV-2 spike HR2 peptide, sequence PDVDLGDISGINAS.

The variants keep the light chain, the linker and the frameworks of Ab-14 (scFv order VH, a (GGGGS)3 linker, VL).
VH: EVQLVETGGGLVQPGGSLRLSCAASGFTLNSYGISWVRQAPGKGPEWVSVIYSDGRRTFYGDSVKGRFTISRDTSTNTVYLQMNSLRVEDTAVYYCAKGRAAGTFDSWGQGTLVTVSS
VL: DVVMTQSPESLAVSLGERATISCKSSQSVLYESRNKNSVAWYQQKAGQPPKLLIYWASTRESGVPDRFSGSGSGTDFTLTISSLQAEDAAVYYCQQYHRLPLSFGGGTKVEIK

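Phage display of a naive human antibody library on the peptide gave the parent. Designed CDR sequences, proposed from the first random library and measured here. Several design methods are mixed in this list. In AlphaSeq, yeast of one mating type display the scFv and yeast of the other type display the target. Pairs that bind mate more often; barcode pairs of the diploids are counted by sequencing. A regression on co-assayed BCL2-family reference pairs converts the normalised counts of each replicate to an apparent Kd. Mating was done six times.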

The parent's heavy chain CDRs are GFTLNSYGIS, VIYSDGRRTFYGDSVK, GRAAGTFDS; each variant's own CDRs replace them letter for letter.
Scale: log10 of Kd in nM, estimated from mating counts; low values are strong binders.
Averages over replicates are reported, and they cover detected replicates only.
"n.d." marks a missing value. The strain was present, yet no cells mated with the target were sequenced in that replicate, which points to weak or no binding.
The authors' rule: three or more of the six replicates give a measured affinity, fewer mean a poor binder.
Of ten entries with the parent sequence, four were seen in most replicates (averages 0.34 to 2.37), three in one and three in none, so single entries are noisy.
A sequence measured in both rounds can read differently, since the two assays cover different ranges.
Three control strains display no target. For all heavy chain designs, 1% of the pairings with them gave a signal, with a median of 2.08 and one signal in twenty below 0.84, so weak values seen in few replicates may be background.

log10 Kd, replicates | mean, log10 nM | CDR-H1 | CDR-H2 | CDR-H3
1.98 / 1.39 / 1.27 / 2.86 / 0.95 / 0.90 | 1.56 | GFTLNLYGIS | VIYSDGRRTFYDDSVK | GQEAGTFDS
n.d. / n.d. / n.d. / n.d. / n.d. / n.d. | n.d. | GFTLNSYGIS | VIYIDGRRTFYDDCVK | GQLAGTFDS
n.d. / n.d. / 3.96 / n.d. / n.d. / n.d. | 3.96 | GFALDEYGIS | VIYADGTRSAYLETVK | GHVGADFIV
n.d. / n.d. / n.d. / n.d. / n.d. / n.d. | n.d. | GFTLNSYGTS | VIYSDGYRTFYGDSVK | GRAAGTGDS
n.d. / n.d. / 1.59 / n.d. / n.d. / n.d. | 1.59 | GFTLNSYGIS | VIYADGRRTFYGDSVK | GRAAGTFKI
1.66 / n.d. / n.d. / n.d. / 1.11 / n.d. | 1.38 | GETLNSYGIS | VIYSDGRRKFYGDSVK | GRAAGTFDS
0.13 / -0.02 / -0.04 / -0.10 / -0.11 / 0.14 | 0.00 | GFDLNSYGIS | VIYSDGRRTFYIDEVK | GRTAGTFDS
0.68 / 0.35 / 0.81 / 0.44 / 0.19 / 0.32 | 0.46 | GFDLNWYGIS | VIYSDGRRTFYADSVK | GREAGTFDS
n.d. / n.d. / 0.28 / n.d. / n.d. / n.d. | 0.28 | GFDIEEYGIS | VIYADGIRTSYQNKVK | GRSGGIFNV
n.d. / n.d. / n.d. / n.d. / 2.62 / n.d. | 2.62 | GFDLAEYGVS | VIYADGKRTHYADHVK | GVNLGFFDT
0.52 / -0.35 / -0.55 / -0.39 / -0.62 / -0.59 | -0.33 | GFDLNEYGIS | VIYADGRRTAYADDVK | GQNAGTFDI
n.d. / n.d. / n.d. / n.d. / n.d. / 2.00 | 2.00 | GFTLNEYGIS | VIYSDGRRTAYGDSVK | GYAAGQFDS
-0.53 / -0.09 / -0.56 / -0.81 / -0.36 / -0.01 | -0.39 | GFDLNDYGIS | VIYADGRRTFYADSVK | GETAGTFDI
0.32 / 0.41 / -0.18 / -0.66 / -0.40 / -0.18 | -0.11 | GFDLNEYGIS | VIYADGKRTAYADSVK | GETAGTFDI
n.d. / n.d. / n.d. / n.d. / n.d. / n.d. | n.d. | GFTLDSYGIN | VIYSDGRRTFYGDSVK | GRAQGTDGS
n.d. / n.d. / n.d. / n.d. / n.d. / n.d. | n.d. | GFTLIQYGIS | VIYSDGRRTFYEDSVK | QRAAGFFDS
n.d. / n.d. / n.d. / n.d. / n.d. / n.d. | n.d. | GFTLNSYGIS | VIYSDGRRTFYQDRVK | GEAAGTFDS
0.02 / -0.09 / 0.36 / -0.08 / 0.41 / 0.40 | 0.17 | GFGLDEYGIS | VIYADGRRTFYADSVK | GENAGTFTM
n.d. / 0.84 / n.d. / 0.51 / 0.18 / 1.76 | 0.82 | GFTLNSYGIS | VIYSDGRRTYMADSVK | GRAAGTFDS
n.d. / n.d. / n.d. / n.d. / n.d. / n.d. | n.d. | GQDLEEFGIS | VIYADGMRAAYADNVK | GVKVGGVTI
2.31 / 2.29 / n.d. / n.d. / n.d. / 1.17 | 1.93 | GFDLNSYGIS | VIYSDGRRTFYGDSVK | GRTAGTFDY
-1.49 / -1.08 / -2.12 / -1.39 / -1.22 / -1.37 | -1.45 | GFDLNEYGIS | VIYADGVRTAYADSVK | GNTAGTFDQ
0.28 / -0.12 / -0.17 / -0.04 / -0.23 / 0.12 | -0.02 | GFDLEEYGIS | VIYADGMRTAYSDSVK | GQNAGTFDV
n.d. / n.d. / 0.77 / n.d. / 1.52 / 2.29 | 1.53 | GFTLNSYGIS | VIYSDGRKTFYDDSVK | GQEAGTFDS
-0.02 / 0.18 / 0.12 / 0.16 / 0.35 / 0.14 | 0.16 | GFQLNEYGIS | VIYSDGRRTFYGDSVK | GKTAGTFDS
n.d. / n.d. / n.d. / n.d. / n.d. / n.d. | n.d. | GFTYNTYGIS | VIYSDGRRTQYIDSVK | GRQAGTFDS
n.d. / 0.86 / 0.94 / 1.75 / 1.06 / 1.29 | 1.18 | GFDLNEYGIS | VIYADGMRTAYVDSVK | GENAGTFDV
-0.66 / -0.30 / -0.16 / -0.69 / -0.79 / -0.29 | -0.48 | GFDLNEYGIS | VIYADGKRTAYADNVK | GTVAGTFDV
-0.80 / -0.76 / -0.44 / -1.74 / -0.87 / -0.83 | -0.91 | GFDLDEYGIS | VIYADGMRTAYTDSVK | GQVAGTFDV
n.d. / n.d. / n.d. / n.d. / n.d. / n.d. | n.d. | WFSLNEYGIS | VIYSGGRRTFYGDSVK | GRAAVTFDQ
n.d. / n.d. / n.d. / n.d. / n.d. / n.d. | n.d. | GFTLNSYGIS | VIYSDGRRTFYADSVK | GYAAWTFDS
-0.41 / -0.65 / -0.43 / -0.57 / -0.72 / -0.38 | -0.53 | GFDLNEYGIS | VIYADGVRTAYIDSVK | GNVAGTFDV
n.d. / n.d. / n.d. / n.d. / n.d. / n.d. | n.d. | GFTLCSYGYS | VIYSDGERTAYGDSVK | LRAAGTFDS
n.d. / n.d. / n.d. / n.d. / n.d. / n.d. | n.d. | GFELNSYGIS | VIYSDGRRTFYTDSVK | GTAAGTFDS
n.d. / 1.22 / 0.88 / 1.44 / 0.78 / 1.30 | 1.12 | GFDLNSYGIS | VIYSDGRRTFYGDSVK | GRESGRFDV
n.d. / n.d. / n.d. / n.d. / n.d. / n.d. | n.d. | GFDINEYGIS | VIYADGIRTSYQNKVK | GRSGGIINV
n.d. / n.d. / n.d. / n.d. / n.d. / n.d. | n.d. | GFDLEEYGVN | VIYADGQRTVYTDAVK | GEVSAGFLI
n.d. / n.d. / n.d. / n.d. / n.d. / n.d. | n.d. | GFTLDSYGIS | VIYSDGRRTFYGDSVK | GYAAGTALS
n.d. / n.d. / n.d. / n.d. / n.d. / n.d. | n.d. | GFKINEYGIS | VIYADGMRRSYADSFK | GAESGYMVV
n.d. / n.d. / n.d. / n.d. / n.d. / n.d. | n.d. | GFSLNSYGIS | VIYSDGRRTFYGDSVK | GRAATTFDT
0.09 / n.d. / n.d. / n.d. / n.d. / n.d. | 0.09 | GFTINSYGIS | VIYSDGRRTAYGDEVK | GRAAGHFKS
n.d. / n.d. / n.d. / n.d. / n.d. / n.d. | n.d. | GFTLNSYGIS | VIYSDGRRTFYDDSVK | GQLAGMFDS
-0.20 / 0.84 / -0.16 / 0.85 / -0.67 / -0.25 | 0.07 | GFNLDEYGIS | VIYADGRRTAYSDNVK | GEVAGTFDI
n.d. / n.d. / n.d. / n.d. / n.d. / n.d. | n.d. | GFTLNNYGIS | VIYSDGRRTFYGDSVK | KRAGGTFES
-0.36 / -0.31 / -0.43 / -0.36 / -0.44 / -0.33 | -0.37 | GFDLNEYGIS | VIYADGSRTAYSDSVK | GTNAGTFDV
0.28 / 0.16 / 0.34 / 0.07 / 0.24 / 0.29 | 0.23 | GFSLNTYGIS | VIYSDGRRTFYIDSVK | GNAAGTFDS
0.38 / 0.58 / 0.12 / 0.42 / 0.49 / 0.35 | 0.39 | GFDLNEYGIS | VIYSDGRRTFYDDSVK | GRTAGTFDS
-0.28 / -0.27 / -0.55 / -0.80 / -0.49 / -0.57 | -0.49 | GFDLDEYGIS | VIYADGRRTFYADDVK | GNVAGTFDV
-0.28 / -0.42 / -0.38 / -0.05 / -0.14 / -0.05 | -0.22 | GFNLDEYGIS | VIYADGQRTFYADSVK | GEVAGTFDV
n.d. / n.d. / n.d. / n.d. / 2.48 / n.d. | 2.48 | GFTLLSYGIS | VIYSDGRRTFYGDSVK | RVAAGTFRS
1.57 / 1.55 / 1.36 / 2.05 / 1.27 / 2.33 | 1.69 | GFDLNSYGIS | VIYSDGRRTFYVDSVK | GKNAGTFDS

The closing 4 entries, repeated:

CDR-H1 | CDR-H2 | CDR-H3 | log10 Kd, replicates | mean, log10 nM
GFDLDEYGIS | VIYADGRRTFYADDVK | GNVAGTFDV | -0.28 / -0.27 / -0.55 / -0.80 / -0.49 / -0.57 | -0.49
GFNLDEYGIS | VIYADGQRTFYADSVK | GEVAGTFDV | -0.28 / -0.42 / -0.38 / -0.05 / -0.14 / -0.05 | -0.22
GFTLLSYGIS | VIYSDGRRTFYGDSVK | RVAAGTFRS | n.d. / n.d. / n.d. / n.d. / 2.48 / n.d. | 2.48
GFDLNSYGIS | VIYSDGRRTFYVDSVK | GKNAGTFDS | 1.57 / 1.55 / 1.36 / 2.05 / 1.27 / 2.33 | 1.69